pEC50: −log10 of the molar value.

The chains behind the UniProt entries cited, without tags or fusion partners. Residues count along the entry.
UniProt P47871, 26-477: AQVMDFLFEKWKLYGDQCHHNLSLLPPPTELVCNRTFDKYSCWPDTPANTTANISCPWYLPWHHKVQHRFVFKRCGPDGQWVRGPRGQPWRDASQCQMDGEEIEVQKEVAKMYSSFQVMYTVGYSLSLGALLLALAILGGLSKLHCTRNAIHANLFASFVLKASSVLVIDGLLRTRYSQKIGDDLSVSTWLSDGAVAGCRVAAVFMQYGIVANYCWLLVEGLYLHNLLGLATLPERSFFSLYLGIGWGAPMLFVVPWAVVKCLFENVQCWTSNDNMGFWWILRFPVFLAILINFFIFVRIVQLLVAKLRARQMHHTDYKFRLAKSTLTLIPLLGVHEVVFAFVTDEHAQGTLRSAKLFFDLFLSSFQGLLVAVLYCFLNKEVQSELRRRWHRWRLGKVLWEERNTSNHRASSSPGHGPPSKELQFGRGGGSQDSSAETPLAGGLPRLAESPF
UniProt P43220, 24-463: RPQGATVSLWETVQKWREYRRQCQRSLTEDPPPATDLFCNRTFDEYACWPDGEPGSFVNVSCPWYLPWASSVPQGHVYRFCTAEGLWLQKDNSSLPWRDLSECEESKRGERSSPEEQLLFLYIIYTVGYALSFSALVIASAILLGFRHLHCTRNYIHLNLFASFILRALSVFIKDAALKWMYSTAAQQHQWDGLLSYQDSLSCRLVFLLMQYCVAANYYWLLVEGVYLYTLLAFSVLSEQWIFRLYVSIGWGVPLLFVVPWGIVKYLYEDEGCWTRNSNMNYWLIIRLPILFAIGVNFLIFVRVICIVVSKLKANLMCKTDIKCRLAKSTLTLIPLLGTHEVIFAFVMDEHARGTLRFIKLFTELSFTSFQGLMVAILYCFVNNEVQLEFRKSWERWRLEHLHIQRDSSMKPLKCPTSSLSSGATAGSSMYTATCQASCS

What all share (assay type): cell-based
One test has as its target human GcgR (Homo sapiens, UniProt P47871). Briefly: Functional cAMP activity in the presence of 1% HSA.
The target of test [1] is T1, hGIPR (Homo sapiens, UniProt P48546).
T1 sequence (P48546 22-466): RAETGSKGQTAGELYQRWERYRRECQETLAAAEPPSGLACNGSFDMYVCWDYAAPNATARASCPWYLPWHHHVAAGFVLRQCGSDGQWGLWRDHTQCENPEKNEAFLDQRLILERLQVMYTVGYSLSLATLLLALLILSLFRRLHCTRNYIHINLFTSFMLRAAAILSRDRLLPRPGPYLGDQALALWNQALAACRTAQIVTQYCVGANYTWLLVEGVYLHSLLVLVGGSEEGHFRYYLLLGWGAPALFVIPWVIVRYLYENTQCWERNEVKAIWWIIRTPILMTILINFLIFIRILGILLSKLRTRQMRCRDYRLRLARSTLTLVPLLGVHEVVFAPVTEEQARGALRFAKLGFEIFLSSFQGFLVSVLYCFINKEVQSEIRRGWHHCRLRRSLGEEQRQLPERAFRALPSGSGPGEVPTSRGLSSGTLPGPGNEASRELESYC
Briefly: Functional cAMP activation in the presence of 0.1% casein (no HSA).

The target in test [2] is T1, hGIPR. Briefly: Functional cAMP activity in the presence of 1% HSA.
The target in test [3] is T2, hGLP-1R (Homo sapiens, UniProt P43220). Briefly: Functional cAMP activation in the presence of 0.1% casein (no HSA).
The target in a further test is human GLP1-R (Homo sapiens, UniProt P43220). Description: GLP1-R internalization assay in HEK293 cells. The following applies: for Internalization % TOP: normalized to maximum concentration of GLP-1 (100%).
Test [4] addresses T2, hGLP-1R. Description: Functional cAMP activity in the presence of 1% HSA.
A further test addresses hGcgR (Homo sapiens, UniProt P47871). Description: Functional cAMP activation in the presence of 0.1% casein (no HSA).

`CC[C@H](C)[C@H](NC(=O)[C@H](Cc1ccccc1)NC(=O)[C@H](C)NC(=O)C(C)(C)NC(=O)[C@H](CCC(N)=O)NC(=O)[C@H](C)NC(=O)[C@H](CCCCNC(=O)COCCOCCNC(=O)CC[C@H](NC(=O)CCCCCCCCCCCCCCCCCCC(=O)O)C(=O)O)NC(=O)[C@H](CCCCN)NC(=O)[C@H](CC(=O)O)NC(=O)[C@H](CC(C)C)NC(=O)[C@](C)(CC(C)C)NC(=O)[C@H](CCCNC(=N)N)NC(=O)[C@H](CO)NC(=O)[C@H](Cc1ccccc1)NC(=O)[C@H](CC(=O)O)NC(=O)[C@H](CO)NC(=O)[C@@H](NC(=O)[C@H](Cc1ccccc1)NC(=O)[C@@H](NC(=O)CNC(=O)[C@H](CCC(N)=O)NC(=O)C(C)(C)NC(=O)[C@@H](N)Cc1ccc(O)cc1)[C@@H](C)O)[C@@H](C)O)C(=O)N[C@@H](CCC(=O)O)C(=O)N[C@@H](Cc1ccc(O)cc1)C(=O)N[C@@H](CC(C)C)C(=O)N[C@@H](CC(C)C)C(=O)N[C@@H](CCC(=O)O)C(=O)NCC(=O)NCC(=O)N1CCC[C@H]1C(=O)N[C@@H](CO)C(=O)N[C@@H](CO)C(=O)NCC(=O)N[C@@H](C)C(=O)N1CCC[C@H]1C(=O)N1CCC[C@H]1C(=O)N1CCC[C@H]1C(=O)NCC(=O)NCC(=O)N[C@@H](CO)C(N)=O` [Example 41]: the negative logarithm of the EC50 (pEC50) (in general, −log10 of the EC50, conventionally taken in molar units) on human GcgR was 5.64; at hGIPR [1], 9.59; on hGIPR [2] it was 7.01; on hGLP-1R [3] it was 8.66; at human GLP1-R, 7.08; on hGLP-1R [4], 6.15. On hGcgR, the pEC50 was 8.07. Besides, the “Internalization % TOP” value on human GLP1-R is listed as 62.3%.

Consider `CC[C@H](C)[C@H](NC(=O)[C@H](Cc1ccccc1)NC(=O)[C@H](C)NC(=O)C(C)(C)NC(=O)[C@H](CCC(N)=O)NC(=O)[C@H](C)NC(=O)[C@H](CCCCNC(=O)COCCOCCNC(=O)CC[C@H](NC(=O)CCCCCCCCCCCCCCCCC(=O)O)C(=O)O)NC(=O)[C@H](CCCCN)NC(=O)[C@H](CC(=O)O)NC(=O)[C@H](CC(C)C)NC(=O)[C@](C)(CC(C)C)NC(=O)[C@H](CCCNC(=N)N)NC(=O)[C@H](CO)NC(=O)[C@H](Cc1ccccc1)NC(=O)[C@H](CC(=O)O)NC(=O)[C@H](CO)NC(=O)[C@@H](NC(=O)[C@H](Cc1ccccc1)NC(=O)[C@@H](NC(=O)CNC(=O)[C@H](CCC(N)=O)NC(=O)C(C)(C)NC(=O)[C@@H](N)Cc1ccc(O)cc1)[C@@H](C)O)[C@@H](C)O)C(=O)N[C@@H](CCC(=O)O)C(=O)N[C@@H](Cc1ccc(O)cc1)C(=O)N[C@@H](CC(C)C)C(=O)N[C@@H](CC(C)C)C(=O)N[C@@H](CCC(=O)O)C(=O)NCC(=O)NCC(=O)N[C@@H](CCC(=O)O)C(=O)N[C@@H](CO)C(=O)N[C@@H](CO)C(=O)NCC(=O)N[C@@H](C)C(=O)N1CCC[C@H]1C(=O)N1CCC[C@H]1C(=O)N1CCC[C@H]1C(=O)N[C@@H](CO)C(=O)NCC(=O)N[C@@H](CO)C(N)=O` [Example 148], for which the pEC50 at human GcgR is 5.88; at hGIPR [1], 9.45; on hGIPR [2] it was 7.13; on hGLP-1R [3] it was 8.55; at human GLP1-R, 7.02; on hGLP-1R [4], 6.06. At hGcgR, the pEC50 is 8.41. Further, on human GLP1-R, the “Internalization % TOP” value is recorded as 37.4%.

For the compound `CC[C@H](C)[C@H](NC(=O)[C@H](Cc1ccccc1)NC(=O)[C@H](C)NC(=O)C(C)(C)NC(=O)[C@H](CCC(N)=O)NC(=O)[C@H](C)NC(=O)[C@H](CCCCNC(=O)COCCOCCNC(=O)CC[C@H](NC(=O)CCCCCCCCCCCCCCCCC(=O)O)C(=O)O)NC(=O)[C@H](CCCCN)NC(=O)[C@H](CC(=O)O)NC(=O)[C@H](CC(C)C)NC(=O)[C@](C)(CC(C)C)NC(=O)[C@H](CCCNC(=N)N)NC(=O)[C@H](CO)NC(=O)[C@H](Cc1ccccc1)NC(=O)[C@H](CC(=O)O)NC(=O)[C@H](CO)NC(=O)[C@@H](NC(=O)[C@H](Cc1ccccc1)NC(=O)[C@@H](NC(=O)CNC(=O)[C@H](CCC(N)=O)NC(=O)C(C)(C)NC(=O)[C@@H](N)Cc1ccc(O)cc1)[C@@H](C)O)[C@@H](C)O)C(=O)N[C@@H](CCC(=O)O)C(=O)N[C@@H](Cc1ccc(O)cc1)C(=O)N[C@@H](CC(C)C)C(=O)N[C@@H](CC(C)C)C(=O)N[C@@H](CCC(=O)O)C(=O)NCC(=O)NCC(=O)N1CCC[C@H]1C(=O)N[C@@H](CO)C(=O)N[C@@H](CO)C(=O)NCC(=O)N[C@@H](C)C(=O)N1CCC[C@H]1C(=O)N1CCC[C@H]1C(=O)N1CCC[C@H]1C(=O)N[C@@H](CO)C(=O)NCC(=O)N[C@@H](CCC(=O)O)C(N)=O` [Example 108], the pEC50 is 5.89 on human GcgR; 9.65 on hGIPR [1]; 7.25 at hGIPR [2]; 7.17 at human GLP1-R; 6.11 on hGLP-1R [4]; 8.40 at hGcgR. Also, on human GLP1-R, the “Internalization % TOP” value was 41.1%.

Turning to `CC[C@H](C)[C@H](NC(=O)[C@H](Cc1ccccc1)NC(=O)[C@H](C)NC(=O)C(C)(C)NC(=O)[C@H](CCC(N)=O)NC(=O)[C@H](C)NC(=O)[C@H](CCCCNC(=O)CC[C@H](NC(=O)CC[C@H](NC(=O)CCCCCCCCCCCCCCCCC(=O)O)C(=O)O)C(=O)O)NC(=O)[C@H](CCCCN)NC(=O)[C@H](CC(=O)O)NC(=O)[C@H](CC(C)C)NC(=O)[C@](C)(CC(C)C)NC(=O)[C@H](CCC(N)=O)NC(=O)[C@H](CO)NC(=O)[C@H](Cc1ccccc1)NC(=O)[C@H](CC(=O)O)NC(=O)[C@H](CO)NC(=O)[C@@H](NC(=O)[C@H](Cc1ccccc1)NC(=O)[C@@H](NC(=O)CNC(=O)[C@H](CCC(N)=O)NC(=O)C(C)(C)NC(=O)[C@@H](N)Cc1ccc(O)cc1)[C@@H](C)O)[C@@H](C)O)C(=O)N[C@@H](CCC(=O)O)C(=O)N[C@@H](Cc1ccc(O)cc1)C(=O)N[C@@H](CC(C)C)C(=O)N[C@@H](CC(C)C)C(=O)N[C@@H](CCC(=O)O)C(=O)NC(C)(C)C(=O)NCC(=O)N1CCC[C@H]1C(=O)N[C@@H](CO)C(=O)N[C@@H](CO)C(=O)NCC(=O)N[C@@H](C)C(=O)N1CCC[C@H]1C(=O)N1CCC[C@H]1C(=O)N1CCC[C@H]1C(=O)N[C@@H](CO)C(=O)NCC(=O)N[C@@H](CO)C(N)=O` [Example 784], the pEC50 on human GcgR is 6.15; at hGIPR [1] it was 10.23; at hGIPR [2], 7.93; on hGLP-1R [3], 8.68; at hGLP-1R [4], 6.55; on hGcgR, 8.28.

For `CC[C@H](C)[C@H](NC(=O)[C@H](Cc1ccccc1)NC(=O)[C@H](C)NC(=O)C(C)(C)NC(=O)[C@H](CCC(N)=O)NC(=O)[C@H](C)NC(=O)[C@H](CCCCNC(=O)COCCOCCNC(=O)COCCOCCNC(=O)CC[C@H](NC(=O)CCCCCCCCCCCCCCCCC(=O)O)C(=O)O)NC(=O)[C@H](CCCCN)NC(=O)[C@H](CC(=O)O)NC(=O)[C@H](CC(C)C)NC(=O)[C@](C)(CC(C)C)NC(=O)[C@H](CCCNC(=N)N)NC(=O)[C@H](CO)NC(=O)[C@H](Cc1ccccc1)NC(=O)[C@H](CC(=O)O)NC(=O)[C@H](CO)NC(=O)[C@@H](NC(=O)[C@H](Cc1ccccc1)NC(=O)[C@@H](NC(=O)CNC(=O)[C@H](CCC(N)=O)NC(=O)C(C)(C)NC(=O)[C@@H](N)Cc1ccc(O)cc1)[C@@H](C)O)[C@@H](C)O)C(=O)N[C@@H](CCC(=O)O)C(=O)N[C@@H](Cc1ccc(O)cc1)C(=O)N[C@@H](CC(C)C)C(=O)N[C@@H](CC(C)C)C(=O)N[C@@H](CCC(=O)O)C(=O)NCC(=O)NCC(=O)N1CCC[C@H]1C(=O)N[C@@H](CO)C(=O)N[C@@H](CO)C(=O)NCC(=O)N[C@@H](C)C(=O)N1CCC[C@H]1C(=O)N1CCC[C@H]1C(=O)N1CCC[C@H]1C(=O)N[C@@H](CO)C(=O)NCC(=O)N[C@@H](CCC(=O)O)C(N)=O` [Example 109], the pEC50 at human GcgR was 5.56; on hGIPR [1], 9.55; on hGIPR [2] it was 7.65; on hGLP-1R [3] it was 8.23; on human GLP1-R, 7.54; at hGLP-1R [4] it was 6.17. In addition, at hGcgR, the pEC50 is 7.95. Besides, the “Internalization % TOP” value at human GLP1-R stood at 39%.

Regarding `CC[C@H](C)[C@H](NC(=O)[C@H](Cc1ccccc1)NC(=O)[C@H](C)NC(=O)C(C)(C)NC(=O)[C@H](CCC(N)=O)NC(=O)[C@H](C)NC(=O)[C@H](CCCCNC(=O)COCCOCCNC(=O)COCCOCCNC(=O)CC[C@H](NC(=O)CCCCCCCCCCCCCCCCC(=O)O)C(=O)O)NC(=O)[C@H](CCCCN)NC(=O)[C@H](CC(=O)O)NC(=O)[C@H](CC(C)C)NC(=O)[C@](C)(CC(C)C)NC(=O)[C@H](CCCN)NC(=O)[C@H](CO)NC(=O)[C@H](Cc1ccccc1)NC(=O)[C@H](CC(=O)O)NC(=O)[C@H](CO)NC(=O)[C@@H](NC(=O)[C@H](Cc1ccccc1)NC(=O)[C@@H](NC(=O)CNC(=O)[C@H](CCC(N)=O)NC(=O)C(C)(C)NC(=O)[C@@H](N)Cc1ccc(O)cc1)[C@@H](C)O)[C@@H](C)O)C(=O)N[C@@H](CCC(=O)O)C(=O)N[C@@H](Cc1ccc(O)cc1)C(=O)N[C@@H](CC(C)C)C(=O)N[C@@H](CC(C)C)C(=O)N[C@@H](CCC(=O)O)C(=O)NC(C)(C)C(=O)NCC(=O)N[C@@H](Cc1ccncc1)C(=O)N[C@@H](CO)C(=O)N[C@@H](CO)C(=O)NCC(=O)N[C@@H](C)C(=O)N1CCC[C@H]1C(=O)N1CCC[C@H]1C(=O)N1CCC[C@H]1C(=O)N[C@@H](CO)C(=O)NCC(=O)N[C@H](C(N)=O)[C@@H](C)O` [Example 184], the pEC50 was 5.98 at human GcgR; 9.79 on hGIPR [1]; 7.79 on hGIPR [2]; 8.30 on hGLP-1R [3]; 6.33 at hGLP-1R [4]; 8.28 at hGcgR.

The values are drawn from patent US20240270821A1, “GIP/GLP1/GCG TRI-RECEPTOR AGONISTS AND USES THEREOF” (priority 2023, published 2024).
